How the values were obtained:
μ-opioid receptor = μ-opioid receptor (Homo sapiens (Human), UniProt P35372); assay: μ-opioid receptor functional assay ([35S]GTPγS); conditions: [35S]GTPγS functional assay
[1] = target: T1, human opioid receptor-like (ORL-1) (Homo sapiens (Human), UniProt P41146); assay: ORL-1 receptor functional assay ([35S]GTPγS); conditions: [35S]GTPγS functional assay
κ opioid receptor = κ opioid receptor (Homo sapiens (Human), UniProt P41145); assay: κ-opioid receptor functional assay ([35S]GTPγS); conditions: [35S]GTPγS functional assay
[2] = target: T1, human opioid receptor-like (ORL-1); assay: ORL-1 receptor binding assay ([3H]-nociceptin)
δ opioid receptor [3] = target: T2, δ opioid receptor (Homo sapiens (Human), UniProt P41143); assay: δ-opioid receptor binding assay ([3H]-Naltrindole dose-displacement)
δ opioid receptor [4] = target: T2, δ opioid receptor; assay: δ-opioid receptor functional assay ([35S]GTPγS); conditions: [35S]GTPγS functional assay

SMILES | GTPγS Opioid Receptor μ Emax (μ-opioid receptor) [%] | GTPγS ORL-1 Emax [1] [%] | GTPγS Opioid Receptor κ Emax (κ opioid receptor) [%] | Binding Affinity, ORL-1 [2] | Binding Affinity, Opioid Receptor δ (δ opioid receptor [3]) | GTPγS Opioid Receptor δ Emax (δ opioid receptor [4]) [%] | GTPγS Opioid Receptor μ EC50 (μ-opioid receptor)
CO[C@]12CC[C@@]3(C[C@@H]1COCc1ccccc1)[C@H]1Cc4ccc(NC(C)=O)c5c4[C@@]3(CCN1C)[C@H]2O5 | 87.67 | 105.00 | 76.00 | – | – | – | –
COc1ccc2c3c1O[C@H]1[C@@]4(OC)CC[C@@]5(C[C@@H]4CNCC(=O)O)[C@@H](C2)N(CC2CC2)CC[C@]315 | 31.33 | – | 60.00 | Inactive | Inactive | – | –
CO[C@]12CC[C@@]3(C[C@@H]1COCc1ccccc1)[C@H]1Cc4ccc(Br)c5c4[C@@]3(CCN1CC1CC1)[C@H]2O5 | 19.67 | – | 88.33 | Inactive | – | 80.00 | –
COc1ccc2c3c1O[C@H]1[C@@]4(OC)CC[C@@]5(C[C@@H]4CSc4nc6ccccc6s4)[C@@H](C2)N(CC2CC2)CC[C@]315 | – | – | 94.00 | Inactive | – | 79.00 | Inactive
COc1ccc2c3c1O[C@H]1[C@@]4(OC)CC[C@@]5(C[C@@H]4CSc4nc6ccccc6s4)[C@@H](C2)N(C)CC[C@]315 | 101.33 | – | 89.00 | Partial | – | 106.67 | –
COc1ccc2c3c1O[C@H]1[C@@]4(OC)CC[C@@]5(C[C@@H]4COCc4ccccc4)[C@@H](C2)N(CC(=O)O)CC[C@]315 | 52.00 | – | 66.67 | Inactive | Inactive | – | –
COc1ccc2c3c1O[C@H]1[C@@]4(OC)CC[C@@]5(C[C@@H]4COCc4ccc(OCC(=O)O)cc4)[C@@H](C2)N(CC2CC2)CC[C@]315 | – | – | 85.33 | Inactive | – | 87.00 | Inactive

From patent publication US9221831B2, “Buprenorphine analogs” (dated 2015)
